“And” between values parts separate entries of the source, which are not always exact repeats. Equal entries are not always repeated. This is a selection; strong and weak results do not stand in their true shares. The source made the active and inactive calls. Calls follow the shape of the dose curve; as a rule, active = well fitted inhibition curve with a large enough effect; inconclusive = small, poorly fitted or top-dose-only effect, or effect the other way; inactive = flat fitted curve, though single readings scatter.
Biological target: Alpha-galactosidase A (Homo sapiens) (UniProt P06280)
Experiment: qHTS Assay for Inhibitors and Activators of Human alpha-Galactosidase From Spleen Homogenate;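 also: 0% = enzyme with vehicle and -100% = no enzyme basal signal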
Conditions: 4MU-alpha-Gal fluorescence, 40 min; at 80 µM (top of the series) unless noted
Excerpt: NIH Chemical Genomics Center [NCGC] NIH Molecular Libraries Probe Production Centers Network [MLPCN] MLPCN Grant: R03 MH084842-01 Assay Submitter (PI): Wei Zheng NCGC Assay Overview: Alpha-galactosidase is a homodimeric glycoprotein that hydrolyzes the terminal alpha-galactosyl moieties from glycolipids and glycoproteins. Deficiency of this enzyme results in Fabry Disease with progressive accumulation of globotriaosylceramide and other glycosphingolipids in vascular endothelial cells that causes renal failure, myocardial infarction and stroke, and premature death in patients. It has been reported that the improper folding and trafficking of alpha-galactosidase resulting from genetic mutations may account for a significant number of Fabry patients. […] We optimized this alpha-galactosidase assay in 1536-well plate format for identification of novel small molecule inhibitors or activators with structures other than the sugar analogs in order to develop new pharmacological chaperones. In particular, this assay is directed towards discovering compounds active in more natural setting, tissue homogenate, that may have been missed by screens of the purified enzyme under more stringent conditions.
NCGC Assay Protocol Summary: This is a fluorogenic enzyme assay with 4-methylumbelliferyl-alpha-D-galactopyranoside as the substrate and human spleen homogenate containing alpha-galactosidase as the enzyme preparation. Upon hydrolysis of this fluorogenic substrate, the resulting product, 4-methylumbelliferone (which excites at 365 nm and emits at 440 nm) can be detected by a fluorescence plate reader. Data were normalized to the controls for basal activity (without enzyme) and 100% activity (with enzyme). The AC50 values were determined from concentration-response data modeled with the standard Hill equation. Assay buffer: 50 mM citric acid (titrated with potassium phosphate to pH 5.0), 0.01% Tween-20 (pH 5.0 is an optimal condition for this enzyme assay) 1536-well assay protocol for the alpha-galactosidase from human spleen homogenate: (1) Add 2 ul/well spleen homogenate (1 ug) (2) Add 23 nL compounds in DMSO solution. The final titration was 0.5 nM to 58 uM. (3) Add 2 ul of substrate (1 mM final) (4) Incubate at 37C for 40 min (5) Add 2 ul stop solution (1M NaOH and 1M Glycine mixture, pH 10) (6) Detect the assay plate in a ViewLux plate reader (PerkinElmer) with Ex=365 nm and Em=440nm. Keywords: Alpha-galactosidase, Fabry Disease, pharmacological chaperone, chaperone therapy, high throughput screening, alpha- galactosidase inhibitor, MLSMR, MLSCN, NIH Roadmap, qHTS and NCGC

By UniProt entry, the sequences of proteins in these tests, tags left out. Where a name states a change or a piece, a line headed by the entry shows the natural chain unless it says otherwise.
UniProt P06280: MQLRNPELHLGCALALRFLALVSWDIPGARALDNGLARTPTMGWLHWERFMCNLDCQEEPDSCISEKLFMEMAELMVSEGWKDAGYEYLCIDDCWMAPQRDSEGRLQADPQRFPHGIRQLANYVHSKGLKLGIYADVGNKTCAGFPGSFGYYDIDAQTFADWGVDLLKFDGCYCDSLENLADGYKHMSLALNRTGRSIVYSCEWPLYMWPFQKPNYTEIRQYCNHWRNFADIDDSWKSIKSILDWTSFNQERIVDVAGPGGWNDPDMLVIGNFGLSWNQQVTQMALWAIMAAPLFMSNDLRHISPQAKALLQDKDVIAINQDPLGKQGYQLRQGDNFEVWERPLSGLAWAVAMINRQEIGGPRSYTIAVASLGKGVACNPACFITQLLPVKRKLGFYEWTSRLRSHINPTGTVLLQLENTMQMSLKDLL

SMILES	activity change, negative = inhibition
CCOP(=O)(Nc1ccc(C)cn1)OCC	inactive: 2.85%
CC(C)/C=N\N=C(\N)N[N+](=O)[O-]	inactive: -10.2%
CN(C(=O)Cc1ccc(Cl)c(Cl)c1)[C@@H]1CCCC[C@H]1N1CCCC1	inactive: 14.2% and inactive: 3.12% and inactive: 1.89%
O=[As](O)(c1ccccc1Br)c1ccccc1Br	inactive: 0.303%
CN(C)C1(CNC(=O)c2ccc(S(C)(=O)=O)cc2)CCCCC1	inactive: -2.53%
O=C(/C=C/c1ccccc1)OC1CN2CCC1CC2 (centres undefined)	inactive: -7.12%
CC1CCC(C(C)C)C(OP(=O)(Nc2ccccn2)c2ccccc2)C1 (centres undefined)	inactive: -9.63%
Cc1nn(-c2ccccc2)c2c1P(=O)(N1CCOCC1)N(C)C(c1ccccc1)=N2 (centres undefined)	inactive: 0.997%
Nc1cccc([As](=O)(O)c2ccccc2)c1	inactive: 3.47%
O=P1(Nc2ccc(Br)cn2)COc2ccccc2OC1	inactive: 6.57%
O=[As](O)(c1cccs1)c1cccs1	inactive: 18%
Cc1ccc(OCC(=O)OC2CN3CCC2CC3)cc1 (centres undefined)	inactive: -1.75%
O=P1(Nc2ncccn2)COc2ccccc2OC1	inactive: 7.17%
Cc1cc(SC(NC(=O)c2ccccc2)C(Cl)(Cl)Cl)nc(C(C)C)n1 (centres undefined)	inactive: -6.61%
CCOC(=O)Nc1ccc([As](=O)(O)O)c(O)c1	inactive: -15%
CN(N=O)C(=N)N[N+](=O)[O-]	inactive: 5.03%
O=P(Nc1ccccn1)(c1cccc2ccccc12)c1cccc2ccccc12	inactive: 4.98%
Cc1cc(SC(NC=O)C(Cl)(Cl)Cl)ncn1 (centres undefined)	inactive: -1.53%
O=[N+]([O-])c1ccc(Nc2ccc(Oc3ccc([N+](=O)[O-])cc3[N+](=O)[O-])cc2)c([N+](=O)[O-])c1	inactive: 4.98%
CCOC(=O)Nc1cccc([As](=O)(O)O)c1	inactive: 5.09%

SMILES	activity change, negative = inhibition
O=C(COc1ccccc1)OC1CN2CCC1CC2 (centres undefined)	inactive: 16.3%
COP1(=S)c2c(C)nn(CCC#N)c2N=C(c2ccc(F)cc2)N1C (centres undefined)	inactive: -0.264%
CCC(C)N(CC(C)C)C(=S)SC(NC(C)=O)C(Cl)(Cl)Cl (centres undefined)	inactive: 1.21%
CCOC(=O)c1ccc(NC(=O)C(C)(CCl)SC)cc1 (centres undefined)	inactive: 6.86%
COc1cc(I)ccc1[As](=O)(O)O	inactive: 7.88%
COc1ccc2nc(NP(=O)(c3ccccc3)c3ccccc3)sc2c1	inactive: -3.53%
Cc1c2c(nc3ccccc13)SC(C(Cl)Cl)C2 (centres undefined)	inactive: 13.6%
Cc1cc(=O)[nH]c(N[N+](=O)[O-])n1	inactive: 3.87%
O=C(OC1CN2CCC1CC2)C12CC3CC(CC(C3)C1)C2 (centres undefined)	inactive: 3%
COc1ccc(N/C(=N/P(=O)(N2CCOCC2)N2CCOCC2)N2CCOCC2)cc1	inactive: 7.39%
Cc1ccc(OP(=O)(Nc2ccc([N+](=O)[O-])cn2)Oc2ccc(C)cc2)cc1	inactive: -10.3%
Cc1ccc2nc3c(c(C)c2c1)CC(C(Cl)Cl)S3 (centres undefined)	inactive: 1.56%
O=[As](O)(c1ccc(O)cc1)c1ccccc1O	inactive: 4.99%
C[As](=O)(O)c1cccc(C(=O)O)c1	inactive: 4.59%
O=[N+]([O-])c1cc([N+](=O)[O-])c(-c2ccn[nH]2)s1	inactive: -3.03%
CCN(CC)C(=S)SC(NC=O)C(Cl)(Cl)Cl (centres undefined)	inactive: 14.1%
CC(C)NC(=O)NP(=O)(Oc1ccccc1)Oc1ccccc1	inactive: -8.02%
ClCCSc1nnc(-c2cccnc2)o1	inactive: 8.59%
CC(C)c1ccc(OP(=O)(Nc2ccccn2)Oc2ccccc2F)cc1 (centres undefined)	inactive: -5.61%

Source: PubChem BioAssay AID2107 (National Center for Advancing Translational Sciences (NCATS), 2009)
